Source: ChEMBL document CHEMBL1212709, “Design of isoform-selective phospholipase D inhibitors that modulate cancer cell invasiveness” (Nat Chem Biol, 2009)

By UniProt entry, the sequences of proteins in these tests, tags left out. Where a name states a change or a piece, a line headed by the entry shows the natural chain unless it says otherwise.
UniProt O14939: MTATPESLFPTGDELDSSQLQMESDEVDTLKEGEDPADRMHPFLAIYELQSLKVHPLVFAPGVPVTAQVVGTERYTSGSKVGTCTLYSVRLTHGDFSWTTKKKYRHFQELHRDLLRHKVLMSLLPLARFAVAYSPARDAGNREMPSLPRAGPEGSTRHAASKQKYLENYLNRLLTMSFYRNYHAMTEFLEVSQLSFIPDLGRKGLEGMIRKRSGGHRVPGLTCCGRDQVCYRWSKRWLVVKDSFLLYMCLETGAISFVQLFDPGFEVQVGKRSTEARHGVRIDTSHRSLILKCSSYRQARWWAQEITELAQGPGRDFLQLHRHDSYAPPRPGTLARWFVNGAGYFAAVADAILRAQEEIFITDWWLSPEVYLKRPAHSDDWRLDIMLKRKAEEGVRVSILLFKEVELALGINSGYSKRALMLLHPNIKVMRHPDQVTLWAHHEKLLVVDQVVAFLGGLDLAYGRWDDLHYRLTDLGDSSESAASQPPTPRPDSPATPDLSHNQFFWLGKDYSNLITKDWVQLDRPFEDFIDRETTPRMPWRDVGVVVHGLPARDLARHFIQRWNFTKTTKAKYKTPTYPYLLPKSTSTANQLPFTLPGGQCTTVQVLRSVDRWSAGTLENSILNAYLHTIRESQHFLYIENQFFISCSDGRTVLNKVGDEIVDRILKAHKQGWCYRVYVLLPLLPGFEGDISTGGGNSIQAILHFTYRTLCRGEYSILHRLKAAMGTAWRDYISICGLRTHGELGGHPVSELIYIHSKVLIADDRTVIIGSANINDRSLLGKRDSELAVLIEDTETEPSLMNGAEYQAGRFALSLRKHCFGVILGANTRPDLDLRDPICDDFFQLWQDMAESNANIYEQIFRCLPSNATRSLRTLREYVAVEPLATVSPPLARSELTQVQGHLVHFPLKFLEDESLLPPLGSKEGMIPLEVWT

Tests used:
[1] = target: T1, Phospholipase D2 (Homo sapiens, UniProt O14939); experiment: Inhibition of GFP-tagged human PLD2 expressed in human HEK293 cells assessed as decrease in phosphatidylbutanol-[d9] production after 30 mins by mass spectrometric analysis; assay type: cell-based
[2] = target: T1, Phospholipase D2; experiment: Inhibition of human PLD2 assessed as release of methyl-[3H]choline from choline-methyl-[3H]dipalmitoylphosphatidylcholine after 30 mins by exogenous substrate assay
[3] = target: T2, Phospholipase D1 (Homo sapiens, UniProt Q13393); experiment: Inhibition of human PLD1 assessed as release of methyl-[3H]choline from choline-methyl-[3H]dipalmitoylphosphatidylcholine after 30 mins by exogenous substrate assay
T2 sequence (Q13393 whole entry): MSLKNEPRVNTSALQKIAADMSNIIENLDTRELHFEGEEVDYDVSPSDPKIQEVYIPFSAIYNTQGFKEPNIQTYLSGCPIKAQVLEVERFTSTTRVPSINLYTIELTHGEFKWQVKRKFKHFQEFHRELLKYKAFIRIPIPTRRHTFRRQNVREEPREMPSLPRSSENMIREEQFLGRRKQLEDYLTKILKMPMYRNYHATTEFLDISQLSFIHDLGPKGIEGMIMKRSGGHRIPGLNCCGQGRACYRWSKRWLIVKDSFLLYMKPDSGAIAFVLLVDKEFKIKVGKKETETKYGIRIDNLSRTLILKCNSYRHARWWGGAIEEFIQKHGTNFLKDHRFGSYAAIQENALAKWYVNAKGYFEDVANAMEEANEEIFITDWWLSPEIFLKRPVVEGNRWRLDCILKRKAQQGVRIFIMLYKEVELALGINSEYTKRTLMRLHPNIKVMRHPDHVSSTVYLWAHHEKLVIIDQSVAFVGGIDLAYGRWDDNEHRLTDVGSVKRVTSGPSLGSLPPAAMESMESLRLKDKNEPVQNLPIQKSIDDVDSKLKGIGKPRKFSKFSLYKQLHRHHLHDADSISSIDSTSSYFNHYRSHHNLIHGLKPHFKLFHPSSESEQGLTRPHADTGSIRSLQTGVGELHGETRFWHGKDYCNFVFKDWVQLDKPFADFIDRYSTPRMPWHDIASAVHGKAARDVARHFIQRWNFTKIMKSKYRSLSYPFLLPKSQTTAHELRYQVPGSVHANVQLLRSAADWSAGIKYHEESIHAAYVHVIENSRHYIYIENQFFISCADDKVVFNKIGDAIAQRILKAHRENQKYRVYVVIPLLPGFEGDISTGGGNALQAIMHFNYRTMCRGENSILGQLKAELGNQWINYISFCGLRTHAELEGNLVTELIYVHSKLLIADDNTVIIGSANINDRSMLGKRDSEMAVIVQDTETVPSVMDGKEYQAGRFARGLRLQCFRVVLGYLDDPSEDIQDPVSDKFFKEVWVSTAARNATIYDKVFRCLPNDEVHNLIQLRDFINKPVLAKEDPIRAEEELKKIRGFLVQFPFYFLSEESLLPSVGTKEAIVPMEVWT

[4] = target: T2, Phospholipase D1
[5] = target: T3, Phospholipase D1 (Rattus norvegicus, UniProt P70496); experiment: Inhibition of N-terminally truncated rat PLD1 assessed as release of methyl-[3H]choline from choline-methyl-[3H]dipalmitoylphosphatidylcholine after 30 mins by exogenous substrate assay
T3 sequence (P70496 whole entry): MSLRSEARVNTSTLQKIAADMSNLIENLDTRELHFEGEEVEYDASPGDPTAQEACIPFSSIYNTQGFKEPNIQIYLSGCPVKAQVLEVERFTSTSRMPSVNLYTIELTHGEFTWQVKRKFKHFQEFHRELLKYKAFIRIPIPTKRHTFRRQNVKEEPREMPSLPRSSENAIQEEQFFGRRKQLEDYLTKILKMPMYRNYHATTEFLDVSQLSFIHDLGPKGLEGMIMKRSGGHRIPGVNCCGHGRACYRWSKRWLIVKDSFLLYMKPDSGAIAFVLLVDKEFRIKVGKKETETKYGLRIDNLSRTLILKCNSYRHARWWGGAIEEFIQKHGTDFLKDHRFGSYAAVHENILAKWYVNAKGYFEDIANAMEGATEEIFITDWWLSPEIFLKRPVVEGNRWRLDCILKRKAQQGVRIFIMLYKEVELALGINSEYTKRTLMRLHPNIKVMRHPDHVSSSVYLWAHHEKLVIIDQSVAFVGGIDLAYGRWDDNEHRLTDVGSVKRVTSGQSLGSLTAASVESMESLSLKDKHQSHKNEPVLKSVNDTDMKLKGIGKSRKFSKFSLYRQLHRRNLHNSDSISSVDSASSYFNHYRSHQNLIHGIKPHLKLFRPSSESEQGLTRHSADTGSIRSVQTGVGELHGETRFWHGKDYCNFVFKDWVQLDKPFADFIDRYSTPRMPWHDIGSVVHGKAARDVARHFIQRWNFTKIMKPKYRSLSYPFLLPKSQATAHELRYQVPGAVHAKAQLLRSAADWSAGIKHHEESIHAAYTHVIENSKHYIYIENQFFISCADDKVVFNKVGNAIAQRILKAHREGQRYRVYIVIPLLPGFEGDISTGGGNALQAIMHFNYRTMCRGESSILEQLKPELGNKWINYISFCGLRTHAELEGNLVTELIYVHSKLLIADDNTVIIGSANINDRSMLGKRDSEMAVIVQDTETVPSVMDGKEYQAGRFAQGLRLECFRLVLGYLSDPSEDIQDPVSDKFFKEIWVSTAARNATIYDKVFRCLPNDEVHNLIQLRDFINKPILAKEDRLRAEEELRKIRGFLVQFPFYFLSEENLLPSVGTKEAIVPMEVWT

Row | Structure (SMILES) | IC50 [1] | IC50 [2] | IC50 [3] | IC50 [4] | IC50 [5]
1 | C=Cc1ccc(C(=O)NCCN2CCC(n3c(=O)[nH]c4ccccc43)CC2)cc1 | 1400 nM | – | – | – | –
2 | O=C(NCCN1CCC2(CC1)C(=O)NCN2c1ccccc1)c1ccc2ccccc2c1 | 110 nM | 140 nM | 5100 nM | 1000 nM | –
3 | O=C(NCCN1CCC(n2c(=O)[nH]c3ccccc32)CC1)[C@@H]1C[C@H]1c1ccccc1 | – | – | – | – | 7600 nM
